# Test results: PubChem BioAssay AID1235 (PCMD, 2008)
# The entries are a selection whose mix differs from that of the whole data set. Some tests of the compounds listed are not included; inactive here does not mean inactive elsewhere. The source made the active and inactive calls.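 How the source made its calls: active means inhibition above 30% in each of the two pooled mixtures holding the compound, so the lower value exceeds 30%; inactive means the rest.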
# Assay: alternative complement pathway inhibitors, primary screen, biochemical, ELISA, human serum, orthogonally pooled compounds (AID 1235);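 further: 0% = serum in Mg-EGTA without compound and 100% = EDTA serum blank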
# Details: LPS-coated ELISA, C3 deposition, tested in compound mixtures, at 5 µM, hits give high values
# In short: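 Assay system: human serum alternative complement pathway, C3 deposition on LPS-coated wells; Dosing: 5 µM per compound in ten-compound mixtures; Detection: Anti-C3 ELISA, OD 450 nm; Buffer or medium: Mg2+-EGTA GVB++ buffer containing human serum at 1:15 dilution; Timing: 1 h at 37 °C; Replication: two different pools per compound.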
row,Compound,inhibition
1,O=C(OC1CN2CCC1CC2)C(CO)(c1ccccc1)c1ccccc1 (configuration not stated),inactive: 4.63%
2,CN(C)c1cccc(C(=O)NCC2(N(C)C)CCCCC2)c1,inactive: 6%
